Ab-95 light chain CDR variants: yeast mating affinities

Data: MIT Lincoln Laboratory AlphaSeq set, Engelhart et al. 2022, doi:10.1038/s41597-022-01779-4, as distributed in FLAb.

The target is the same throughout: PDVDLGDISGINAS, from the HR2 region of SARS-CoV-2 spike.

The variants keep the heavy chain, the linker and the frameworks of Ab-95 (scFv order VH, a 15-residue (Gly4Ser)3 linker, VL).
VH: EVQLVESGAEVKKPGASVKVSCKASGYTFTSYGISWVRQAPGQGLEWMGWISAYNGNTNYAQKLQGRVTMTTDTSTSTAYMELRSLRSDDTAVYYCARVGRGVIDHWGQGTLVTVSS
VL: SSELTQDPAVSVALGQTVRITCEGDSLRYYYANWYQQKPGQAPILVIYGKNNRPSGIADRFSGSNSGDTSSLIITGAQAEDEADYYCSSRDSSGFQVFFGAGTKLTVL

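Phage display of a naive human antibody library on the peptide gave the parent. In library AAYL52, one, two or three CDR residues were substituted; doubles and triples were drawn at random. Affinity was read by AlphaSeq, a pooled yeast mating assay with surface-displayed partners. Pairs that bind mate more often; barcode pairs of the diploids are counted by sequencing. Read counts were normalised to the haploid input and turned into Kd by a linear fit to BCL2-family pairs of known affinity, for each replicate. The assay was run in three technical replicates.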

Substitutions are numbered in sequence along the VL above, starting at 1 (not Kabat).
The read-out is the apparent dissociation constant on a log10 scale (nM): the lower, the stronger.
Where no diploid with the target was found in that replicate, the entry reads "nd": below detection, most likely a poor binder, though not proof of it.

| changes | replicates, log10 nM | control signals |
|---|---|---|
| L27M D91I G94S | nd 4.45 nd | 0 of 9 |
| E23W Y29M Y30R | 1.95 1.86 1.42 | 5 of 9 (4.57) |
| G24L D25R F98G | 3.74 5.77 3.29 | 5 of 9 (4.05) |
| G49T S88V V97N | nd nd nd | 1 of 9 (4.28) |
| Y31M R53S F95A | 3.21 2.57 1.93 | 4 of 9 (3.19) |
| R28D P54M S88L | 3.03 3.00 2.66 | 5 of 9 (3.84) |
| R90M G94E Q96K | 5.09 nd 4.06 | 0 of 9 |
| N52I S89A Q96Y | nd nd nd | 0 of 9 |
| S26F N33I N51T | 4.50 nd nd | 2 of 9 (3.96) |
| G24C S88G D91F | 3.69 4.70 4.19 | 3 of 9 (4.04) |
| R90A Q96V F98M | 2.27 3.19 2.27 | 2 of 9 (4.14) |
| N51Q S93Y G94Y | 3.80 3.79 nd | 2 of 9 (3.79) |
| D25Y Y29M Q96C | 5.26 3.47 2.74 | 2 of 9 (3.07) |
| L27Q S55K S93C | 3.66 nd nd | 1 of 9 (2.81) |
| E23T Y31K V97T | 1.94 2.60 1.74 | 2 of 9 (4.09) |
| D25W G49I F98L | 4.13 5.88 nd | 2 of 9 (4.83) |
| Y30F N51K F95L | 3.80 nd 2.89 | 2 of 9 (3.66) |
| G24W G49N V97F | nd nd nd | 2 of 9 (3.60) |
| E23M Y31D N52I | 1.53 1.64 0.98 | 5 of 9 (3.76) |
| K50F S88N S89D | nd nd nd | 0 of 9 |
| R28N S93R | 1.75 1.78 1.81 | 2 of 9 (4.89) |
| Y29N N33T D91F | 4.50 5.15 4.76 | 3 of 9 (3.91) |
| L27P N52R S55N | 3.77 nd nd | 2 of 9 (3.00) |
| L27G N52S P54W | 3.91 4.31 nd | 3 of 9 (4.01) |
| R28N Y29F F95M | 2.29 2.33 2.96 | 2 of 9 (3.56) |
| S55M D91L F98T | nd 5.19 4.67 | 4 of 9 (4.77) |
| D25W Y29K N33Q | nd nd nd | 5 of 9 (3.83) |
| G49M R90D V97H | nd 3.61 4.13 | 1 of 9 (3.93) |
| N52P S55W S89E | nd nd nd | 0 of 9 |
| N33K N52M G94N | 3.60 4.00 4.35 | 3 of 9 (3.18) |
| G24P S89W D91L | nd 3.06 nd | 2 of 9 (3.56) |
| N33C F95A | nd nd 3.00 | 0 of 9 |
| Y29S S55W S93R | 3.33 2.84 3.00 | 0 of 9 |
| E23Q P54K G94W | nd nd 3.74 | 2 of 9 (4.13) |
| N52E S88F S92P | nd nd nd | 2 of 9 (3.96) |
| S26A Y30N V97L | 1.29 1.10 0.84 | 5 of 9 (4.55) |
| Y30W S93E V97H | 4.21 2.69 1.74 | 0 of 9 |
| Y29F N51E S92P | 2.73 3.07 3.39 | 4 of 9 (4.31) |
| Y30C N33Q R53D | 2.22 4.09 nd | 2 of 9 (2.62) |
| D25M A32V S93Y | 3.09 3.11 2.87 | 0 of 9 |
| E23C Y29H F98C | 2.86 3.11 2.30 | 6 of 9 (4.26) |
| R28M P54E V97G | 4.22 5.40 nd | 4 of 9 (4.04) |
| S26Y N33C R90L | nd nd nd | 0 of 9 |
| G24K R90E S93R | 3.30 3.48 nd | 4 of 9 (4.39) |
| Y29Q | 2.24 2.06 1.43 | 2 of 9 (4.17) |
| G24M L27W G94Y | 4.11 nd 3.99 | 4 of 9 (3.69) |

The opening 2 entries, copied out:

changes	replicates, log10 nM	control signals
L27M D91I G94S	nd 4.45 nd	0 of 9
E23W Y29M Y30R	1.95 1.86 1.42	5 of 9 (4.57)

In this assay the parent's reference entry averaged 2.31; its copy inside this library read 2.25.
Background: pairings of library AAYL52 with three empty control strains gave a value in 28% of cases (median 3.91, 5th percentile 2.90). Values in that range, when seen in few replicates, are hard to tell from nonspecific mating. Also given: how often the same scFv was detected with the empty control strains, with their mean in brackets.